Assay results: PMC3866371 (Neuropharmacology, 2013)

Amino acid sequences for entries named in this document (tags omitted). Residues count along the entry.
UniProt P04757, 26-499: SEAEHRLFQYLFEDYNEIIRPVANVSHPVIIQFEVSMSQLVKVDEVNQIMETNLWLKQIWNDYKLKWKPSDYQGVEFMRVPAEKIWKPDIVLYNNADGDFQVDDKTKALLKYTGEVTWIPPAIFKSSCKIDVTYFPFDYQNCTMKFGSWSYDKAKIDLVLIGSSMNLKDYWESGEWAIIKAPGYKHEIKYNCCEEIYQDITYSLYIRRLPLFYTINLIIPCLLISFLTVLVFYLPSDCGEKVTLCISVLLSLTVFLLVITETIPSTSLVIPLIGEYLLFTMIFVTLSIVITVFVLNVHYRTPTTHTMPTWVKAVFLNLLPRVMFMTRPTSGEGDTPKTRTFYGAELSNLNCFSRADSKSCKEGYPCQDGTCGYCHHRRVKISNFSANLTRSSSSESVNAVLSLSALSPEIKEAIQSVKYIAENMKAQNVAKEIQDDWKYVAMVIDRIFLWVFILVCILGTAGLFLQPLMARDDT
UniProt P12392, 21-495: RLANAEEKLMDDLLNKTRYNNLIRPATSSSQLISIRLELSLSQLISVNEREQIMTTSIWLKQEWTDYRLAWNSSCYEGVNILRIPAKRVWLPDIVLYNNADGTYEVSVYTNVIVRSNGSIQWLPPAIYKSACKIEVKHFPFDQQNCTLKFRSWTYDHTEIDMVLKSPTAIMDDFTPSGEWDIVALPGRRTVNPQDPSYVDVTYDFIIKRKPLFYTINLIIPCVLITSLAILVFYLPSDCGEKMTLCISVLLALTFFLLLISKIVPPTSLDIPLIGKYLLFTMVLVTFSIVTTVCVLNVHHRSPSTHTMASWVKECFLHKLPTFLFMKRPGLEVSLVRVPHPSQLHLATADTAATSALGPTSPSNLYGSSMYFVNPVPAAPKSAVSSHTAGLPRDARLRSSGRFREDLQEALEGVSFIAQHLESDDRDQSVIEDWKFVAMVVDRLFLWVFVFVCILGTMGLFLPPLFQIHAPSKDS

Molecular target: α3β4 nAChR (Rattus norvegicus, UniProt P04757+P12392)
Format: binding
Conditions: 16 h incubation

SMILES: Clc1ccc(C2CC3CCC2N3)cn1 (stereo not shown) [[^3H]epibatidine]
- Bmax of [^3H]epibatidine binding (in the presence of 0 AT-1012): 8.28 pmol/mg protein
- Bmax of [^3H]epibatidine binding (in the presence of 5 nM AT-1012): 7.34 pmol/mg protein
- Bmax of [^3H]epibatidine binding (in the presence of 15 nM AT-1012): 6.08 pmol/mg protein
- Bmax of [^3H]epibatidine binding (in the presence of 50 nM AT-1012): 6.32 pmol/mg protein

Where two headings read alike, the source gives them in different places.
